According to patent US12139488B2, “Pyrido[3,2-d]pyrimidine compounds uses thereof for treating a proliferative disease” (Universite de Montreal, priority 2021, dated 2024):
Where two headings read alike, the source gives them in different places.

Key:
[1] = system: pERK in NCI-H358 cells (KRAS-G12C); assay: Phospho-ERK inhibition (AlphaLISA), NCI-H358; details: for NCI-H358 pERK % Ymin: NCI-H358, value in parentheses; for IC50: read-out: NCI-H358 pERK IC50, NCI-H358
Protocol: (§1) All cancer cell lines (A375, A101D, A2058, RKO, HT29 SK-MEL 30, IPC298, HepG2, HCT-116, Lovo, SWV620, SW480, NCI-H358, NCI-H2122, Calu-6, NCIH2087, NCIH1755, NCIH1666 and Mewo) were obtained from ATCC and cultured in RPMI-1640 medium (Gibco) supplemented with 5% heat inactivated fetal bovine serum (FBS, Wisent) at 37° C. under 5% CO2. Cells were maintained in T175 flasks (Greiner). They were passaged by removing the culture medium, washing once in 10 mL of room temperature Phosphate Buffered Saline (PBS; Wisent) and incubating at 37° C. with 2 mL of 0.05% Trypsin (Thermo-Fisher). Trypsin was then inactivated by adding complete growth medium and the cells were then replated in a T175 culture dish at the appropriate dilution. All cell lines were routinely tested for mycoplasma contamination. Tissue type and mutational status of each cell line can be found in Table B.
(§2) AlphaLISA® SureFire® Ultra™ p-ERK 1/2 (Thr202/Tyr204) analysis was conducted on cells plated in 100 μL of complete RPMI-1640 growth medium in 96-well flat-bottomed transparent dishes (Costar) at a density indicated in Table C. Cells were maintained overnight at 37° C. under 5% CO2 before treatment with compounds' dilution series for one hour. The cell density in cells/cm^2 corresponds to cell number divided by the area of one well of a 96-well plate ([…]).
(§3) In a dilution series 100 μL/well of test substance dilution prepared in complete RPMI-1640 growth media was added to the cells. The dilution series is selected so that ten concentrations cover a range from 10 μM to 0.33 nM. If necessary the initial concentration of 10 μM is increased to 100 μM or lowered to 1 μM (as in the case of A375 and H1666 cells, which are generally more sensitive to the compounds) and further dilution is carried out accordingly. The final concentration of DMSO in the assay is set at 0.5%.
(§4) After treatment, media was removed and cells were lysed in 50 μL of 1× AlphaScreen Ultra Lysis Buffer (Perkin Elmer). The AlphaLISA® SureFire® Ultra™ p-ERK 1/2 (Thr202/Tyr2O4) (PerkinElmer) reactions were performed with 5 μL of cell lysate according to the manufacturer's specifications in 384-well proxyplates (Perkin Elmer) followed by overnight incubation of the reactions at room temperature in a humidified chamber. After completion of the reactions, the signals were recorded on an EnVision plate reader (Perkin Elmer) using built in AlphaLISA® settings.
(§5) The effect of each compound dilution on the pERK signal was expressed in % inhibition and calculated as follows. An internal 100% inhibition control ([…] trametinib, cat #HY-10999; MedChem Express; CAS #871700-17-3) was included in each plate and used as a measure of pERK background. First, the value obtained for trametinib was subtracted from each data point. The average of DMSO (vehicle) controls (set as 0% inhibition) was established and used to calculate % inhibition: % inhibition=100*(1-((pERK signalcompound)/(pERK signalDMSO)))
(§6) The ability of each compound to inhibit pERK signal was expressed as an IC50 value obtained by plotting the inhibition values for each data point of a dilution series and fitting the obtained curves using a log(agonist) versus response-variable slope (four parameters) function using GraphPadPrism (V7.0) or Dotmatics Screening Ultra platform.
(§7) When present, paradoxical pERK induction is inferred from the negative % inhibition values observed in the pERK IC50 curves of a compound.

[2] = system: pERK in NCIH1755 cells (BRAF G469A); assay: Phospho-ERK inhibition (AlphaLISA), NCIH1755; details: for NCIH1755 pERK % Ymin: NCIH1755, value in parentheses; for IC50: read-out: NCIH1755 pERK IC50, NCIH1755
Protocol: as §1, §2, §3, §4, §5, §6, §7

[3] = system: pERK in HCT-116 cells (KRAS G13D); assay: Phospho-ERK inhibition (AlphaLISA SureFire Ultra p-ERK 1/2), HCT116; details: for HCT116 pERK % Ymin: value in parentheses; for HCT116 pERK % Ymin (lowest value of the IC50 curve): Ymin above −20% = minimal or no paradoxical activation; for IC50: read-out: HCT116 pERK IC50
In short: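 Cells plated in RPMI-1640 with 5% FBS, kept overnight at 37° C, then treated 1 h with ten-point dilutions (top usually 10 μM; 0.5% DMSO). Lysate p-ERK1/2 (Thr202/Tyr204) read by AlphaLISA SureFire Ultra. % inhibition set against DMSO after subtracting the trametinib background; IC50 from four-parameter fit.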

SW620 cells (KRAS-G12V) = assay: Proliferation inhibition (CellTiter-Glo), SW620; details: read-out: SW620 Prolif. EC50; SW620, 3 days
Protocol: as §1
CellTiter-Glo® viability analysis was conducted on cells plated in 100 μL of complete RPMI-1640 growth medium in 96-well flat-bottomed white opaque plates (Greiner or Croning) at a density indicated in Table E (for each CCL, number of cells plated per well of a 96-well plate to perform the CellTiter-Glo® cell viability assay). The cell density in cells/cm^2 would correspond to cell number divided by the area of one well of a 96-well plate (0.32 cm^2). Cells were maintained overnight at 37° C. under 5% CO2 before treatment with compounds' dilution series for 3 days.
In a dilution series 100 μL/well of test substance dilution prepared in complete RPMI-1640 growth media was added to the cells plated initially in 100 μL of growth media. The dilution series is selected so that ten concentrations cover a range from 10 μM to 0.33 nM. If necessary (as in the case of A375 cells, which were more sensitive to the compounds) the initial concentration of 10 μM is lowered to 1 μM and further dilution is carried out accordingly. The final concentration of DMSO in the assay is set at is 0.5%.
After 3 days of incubation, the growth media were removed by aspiration and 60 μL of diluted CellTiter-Glo® reagent (10 μL CellTiter-Glo® reagent+50 μL of PBS) was added to each well. Cells were allowed to lyse and to equilibrate in CellTiter-Glo® reagent by 5 min incubation on a plate shaker followed by 10 min incubation at room temperature. Luminescence signals were then acquired on a Synergy Neo2 plate reader (Biotek).
The effect of each compound dilution on the proliferation of cancer cell lines was expressed in % inhibition and calculated as follows. An internal 100% inhibition control (1 μM of trametinib; cat #HY-10999; MedChem Express; CAS #871700-17-3) was included in each plate and used as a measure of CellTiter-Glo® signal background. The value obtained for trametinib was subtracted from each data point. The average of DMSO (vehicle) controls (set as 0% inhibition) was established and used to calculate % inhibition: % inhibition=100*(1−((CellTiter-Glo® signalcompound)/(CellTiter-Glo® signalDMSO)))
The ability of each compound to inhibit proliferation was expressed as a EC50 value obtained by plotting the effect values for each data point of a dilution series and fitting the obtained curves using a log(agonist) versus response-variable slope (four parameters) function using GraphPadPrism (V7.0) or Dotmatics Screening Ultra platform.

[4] = system: pERK in NCIH2087 cells (BRAF L597V; KRAS Q61K); assay: Phospho-ERK inhibition (AlphaLISA), NCIH2087; details: for NCIH2087 pERK % Ymin: NCIH2087, value in parentheses; for IC50: read-out: NCIH2087 pERK IC50, NCIH2087
Protocol: as §1, §2, §3, §4, §5, §6, §7

SMILES	NCI-H358 pERK % Ymin [1] [%]	IC50 [1] [nM]	NCIH1755 pERK % Ymin [2] [%]	IC50 [2] [nM]	HCT116 pERK % Ymin ([3]; HCT116, Table D) [%]	HCT116 pERK % Ymin (lowest value of the IC50 curve) ([3]; HCT116 cells) [%]	IC50 ([3]; HCT116, Table D) [nM]	IC50 ([3]; HCT116 cells) [nM]	EC50 (SW620 cells (KRAS-G12V)) [nM]	NCIH2087 pERK % Ymin [4] [%]	IC50 [4] [nM]	IC50 ([3]; HCT116 cells, class symbol) [nM]	HCT116 pERK Ymin % ([3]; HCT116 cells, Ymin in brackets) [%]	IC50 ([3]; HCT116 cells, class symbol before the bracket) [nM]
O=S(=O)(Nc1ccc(F)c(Nc2ncnc3ccc(-n4cnc5c(N6CCC(O)(C(F)(F)F)CC6)cccc54)nc23)c1F)c1cccc(Cl)c1Cl	0	30 to 300	−7	< 30	−9	−9	30 to 300	< 500	< 30	−8	< 30	–	–	–
COCCOc1cccc2c1nnn2-c1ccc2ncnc(Nc3c(F)ccc(NS(=O)(=O)c4cccc(Cl)c4Cl)c3F)c2n1	8	30 to 300	−7	< 30	0	0	30 to 300	< 500	> 3000	−2	< 30	–	–	–
CS(=O)(=O)C1CCN(c2cccc3c2nnn3-c2ccc3ncnc(Nc4c(F)ccc(NS(=O)(=O)c5cccc(Cl)c5Cl)c4F)c3n2)CC1	4	30 to 300	7	< 30	5	5	30 to 300	< 500	< 30	−10	< 30	–	–	–
O=S(=O)(CCCN1CCOCC1)c1cn(-c2ccc3ncnc(Nc4c(F)ccc(NS(=O)(=O)c5cccc(Cl)c5Cl)c4F)c3n2)c2ccccc12	−9	30 to 300	2	< 30	0	–	30 to 300	–	300 to 3000	14	< 30	< 500	–	–
COc1ccc(S(=O)(=O)Nc2ccc(F)c(Nc3ncnc4ccc(-n5cc(S(=O)(=O)N(C)CCN(C)C)c6ccccc65)nc34)c2F)c(C)c1F	−11	30 to 300	2	< 30	−9	–	30 to 300	–	< 30	−1	< 30	< 500	–	–
CCC1(O)CCN(c2cccc3c2ncn3-c2ccc3ncnc(Nc4c(F)ccc(NS(=O)(=O)c5cccc(Cl)c5Cl)c4F)c3n2)CC1	1	30 to 300	1	< 30	−7	−7	30 to 300	< 500	< 30	5	< 30	–	–	–
CN(CCN1CCOCC1)S(=O)(=O)c1cn(-c2ccc3ncnc(Nc4c(F)ccc(NS(=O)(=O)c5cccc(Cl)c5Cl)c4F)c3n2)c2ccccc12	3	30 to 300	0	< 30	−6	–	30 to 300	–	300 to 3000	12	< 30	< 500	–	–
Cc1c(F)cccc1S(=O)(=O)Nc1ccc(F)c(Nc2ncnc3ccc(-n4cnc5c(-c6cccnc6)cccc54)nc23)c1F	−15	30 to 300	−2	< 30	−6.3	–	30 to 300	–	300 to 3000	2	30 to 300	–	−6.3	< 500
Cc1c(F)cccc1S(=O)(=O)Nc1ccc(F)c(Nc2ncnc3ccc(-n4nc(C(=O)N(C)Cc5cccnc5)c5ccccc54)nc23)c1F	–	–	–	–	−6.5	–	30 to 300	–	< 30	–	–	< 500	–	–
